Measurements as given in patent US9464084B2, “P2X7 modulators” (Janssen Pharmaceutica NV, priority 2013, dated 2016).

The chains behind the UniProt entries cited, without tags or fusion partners. Where a name states a change or a piece, a line headed by the entry shows the natural chain unless it says otherwise.
UniProt Q99572: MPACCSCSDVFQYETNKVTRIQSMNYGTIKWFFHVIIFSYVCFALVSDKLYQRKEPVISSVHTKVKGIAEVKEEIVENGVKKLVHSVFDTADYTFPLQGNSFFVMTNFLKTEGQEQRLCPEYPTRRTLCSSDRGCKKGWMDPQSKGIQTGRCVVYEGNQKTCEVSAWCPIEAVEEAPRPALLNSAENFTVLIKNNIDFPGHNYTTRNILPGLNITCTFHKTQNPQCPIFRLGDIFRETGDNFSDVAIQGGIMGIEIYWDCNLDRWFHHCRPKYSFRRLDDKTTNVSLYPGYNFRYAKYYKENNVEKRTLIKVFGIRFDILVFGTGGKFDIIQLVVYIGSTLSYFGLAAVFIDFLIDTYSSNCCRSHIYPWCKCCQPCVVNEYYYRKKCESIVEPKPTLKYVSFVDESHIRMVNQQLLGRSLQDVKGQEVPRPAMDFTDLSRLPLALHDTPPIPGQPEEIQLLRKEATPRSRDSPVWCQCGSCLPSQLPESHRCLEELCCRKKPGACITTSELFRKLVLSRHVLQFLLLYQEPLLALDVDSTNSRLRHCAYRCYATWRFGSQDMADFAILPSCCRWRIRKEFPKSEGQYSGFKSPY

How the values were obtained:
P2X7 [1] = target: T1, P2X7 (Homo sapiens (Human), UniProt Q99572); experiment: Radioligand binding, tritiated A-804598, human P2X7-1321N1 cell membranes; conditions: 1 hour at 4° C.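 Further: ki obtained from the binding IC50 after correction for tracer concentration and tracer affinity.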
P2X7 [2] = target: T1, P2X7; experiment: Ca2+ flux (FLIPR) in 1321N1 cells expressing recombinant human P2X7 channel; format: cell-based; conditions: 250 μM BzATP;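 further: Calcium-4 dye-loaded cells exposed to compound for 30 min before agonist addition, fluorescence change read 180 s after agonist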

| Ki (P2X7 [1]) [µM] | IC50 (P2X7 [2]) [µM] | Structure (SMILES) |
| --- | --- | --- |
| 0.0398 | 0.0177 | CC1c2nnn(-c3ncccc3F)c2CCN1C(=O)c1cccc(C(F)(F)F)c1Cl (stereo not drawn) [Example 84, 5-{[2-Chloro-3-(trifluoromethyl)phenyl]carbonyl}-1-(3-fluoropyridin-2-yl)-4-methyl-4,5,6,7-tetrahydro-1H-[1,2,3]triazolo[4,5-c]pyridine] |
| 0.0794 | 0.0158 | Cn1nc2c(c1-c1cccnc1)CCN(C(=O)c1cccc(C(F)(F)F)c1Cl)C2 [Example 107, 6-{[2-Chloro-3-(trifluoromethyl)phenyl]carbonyl}-2-methyl-3-pyridin-3-yl-4,5,6,7-tetrahydro-2H-pyrazolo[3,4-c]pyridine] |
| 0.0794 | 0.159 | Cn1nc2c(c1-c1cccnc1)CCN(C(=O)c1cccc(Cl)c1Cl)C2 [Example 111, 6-[(2,3-Dichlorophenyl)carbonyl]-2-methyl-3-pyridin-3-yl-4,5,6,7-tetrahydro-2H-pyrazolo[3,4-c]pyridine] |
| 0.0063 | 0.0059 | CC1Cc2c(nnn2-c2ccccn2)CN1C(=O)c1cccc(Cl)c1Cl (stereo not drawn) [Example 120, 5-[(2,3-Dichlorophenyl)carbonyl]-6-methyl-1-pyridin-2-yl-4,5,6,7-tetrahydro-1H-[1,2,3]triazolo[4,5-c]pyridine] |
| 0.0158 | 0.0089 | CC1Cc2c(nnn2-c2cc(F)ccn2)CN1C(=O)c1cccc(Cl)c1Cl (stereo not drawn) [Example 173, 5-[(2,3-Dichlorophenyl)carbonyl]-1-(4-fluoropyridin-2-yl)-6-methyl-4,5,6,7-tetrahydro-1H-[1,2,3]triazolo[4,5-c]pyridine] |
| 0.005 | 0.0102 | CC1Cc2c(nnn2-c2cc[nH]n2)CN1C(=O)c1cccc(C(F)(F)F)c1Cl (stereo not drawn) [Example 210, (2-chloro-3-(trifluoromethyl)phenyl)(6-methyl-1-(1H-pyrazol-3-yl)-6,7-dihydro-1H-[1,2,3]triazolo[4,5-c]pyridin-5(4H)-yl)methanone] |
| 0.0447 | 0.0223 | CCc1cccnc1-n1nnc2c1CCN(C(=O)c1cccc(C(F)(F)F)c1Cl)C2C (stereo not drawn) [Example 254, (2-Chloro-3-(trifluoromethyl)phenyl)(1-(3-ethylpyridin-2-yl)-4-methyl-6,7-dihydro-1H-[1,2,3]triazolo[4,5-c]pyridin-5(4H)-yl)methanone] |

Continued, molecule first:

| Structure (SMILES) | Ki (P2X7 [1]) [µM] | IC50 (P2X7 [2]) [µM] |
| --- | --- | --- |
| C[C@@H]1Cc2c(nnn2-c2cc(F)ccn2)CN1C(=O)c1cccc(Cl)c1Cl (single isomer, unassigned) [Example 195, (6R*)-5-[(2,3-Dichlorophenyl)carbonyl]-1-(4-fluoropyridin-2-yl)-6-methyl-4,5,6,7-tetrahydro-1H-[1,2,3]triazolo[4,5-c]pyridine] | 0.01 | 0.0034 |
| C[C@H]1Cc2c(nnn2-c2cc(F)ccn2)CN1C(=O)c1cccc(Cl)c1Cl (single isomer, unassigned) [Example 196, (6S*)-5-[(2,3-Dichlorophenyl)carbonyl]-1-(4-fluoropyridin-2-yl)-6-methyl-4,5,6,7-tetrahydro-1H-[1,2,3]triazolo[4,5-c]pyridine] | 0.501 | 0.391 |
| C[C@@H]1c2n[nH]c(-c3ncc(F)cn3)c2CCN1C(=O)c1cccc(C(F)(F)F)c1Cl (single isomer, unassigned) [Example 223, (R*)-(2-chloro-3-(trifluoromethyl)phenyl)(3-(5-fluoropyrimidin-2-yl)-7-methyl-4,5-dihydro-2H-pyrazolo[3,4-c]pyridin-6(7H)-yl)methanone] | 0.0447 | 0.025 |
| Cc1ccc(-n2nnc3c2CCN(C(=O)c2cccc(C(F)(F)F)c2Cl)[C@@H]3C)nc1 (single isomer, unassigned) [Example 255, (R*)-(2-chloro-3-(trifluoromethyl)phenyl)(4-methyl-1-(5-methylpyridin-2-yl)-6,7-dihydro-1H-[1,2,3]triazolo[4,5-c]pyridin-5(4H)-yl)methanone] | 0.0724 | 0.016 |
| Cc1nc(-n2nnc3c2CCN(C(=O)c2cccc(C(F)(F)F)c2Cl)[C@@H]3C)ncc1F (single isomer, unassigned) [Example 305, (R*)-(2-chloro-3-(trifluoromethyl)phenyl)(1-(5-fluoro-4-methylpyrimidin-2-yl)-4-methyl-6,7-dihydro-1H-[1,2,3]triazolo[4,5-c]pyridin-5(4H)-yl)methanone] | 0.0457 | 0.0155 |
| CC1c2ncn(-c3cnccn3)c2CCN1C(=O)c1cccc(C(F)(F)F)c1F (stereo not drawn) [Example 14, (2-Fluoro-3-(trifluoromethyl)phenyl)(4-methyl-1-(pyrazin-2-yl)-6,7-dihydro-1H-imidazo[4,5-c]pyridin-5(4H)-yl)methanone] | 0.0794 | 0.083 |
| CC1c2ncn(-c3ccccn3)c2CCN1C(=O)c1cccc(C(F)(F)F)c1F (stereo not drawn) [Example 19, (2-Fluoro-3-(trifluoromethyl)phenyl)(4-methyl-1-(pyridin-2-yl)-6,7-dihydro-1H-imidazo[4,5-c]pyridin-5(4H)-yl)methanone] | 0.1 | 0.0352 |
| O=C(c1cccc(C(F)(F)F)c1Cl)N1CCc2c(nnn2-c2ncccn2)C1 [Example 65, 5-{[2-Chloro-3-(trifluoromethyl)phenyl]carbonyl}-1-pyrimidin-2-yl-4,5,6,7-tetrahydro-1H-[1,2,3]triazolo[4,5-c]pyridine] | 0.0158 | 0.0063 |
| O=C(c1cccc(C(F)(F)F)c1Cl)N1C=Cc2c(nnn2-c2cnccn2)C1c1ccccc1 (stereo not drawn) [Example 76, 5-{[2-Chloro-3-(trifluoromethyl)phenyl]carbonyl}-4-phenyl-1-pyrazin-2-yl-4,5-dihydro-1H-[1,2,3]triazolo[4,5-c]pyridine] | 0.363 | 0.0244 |
| CC1c2nnn(-c3ncccn3)c2CCN1C(=O)c1cccc(C(F)(F)F)c1Cl (stereo not drawn) [Example 80, 5-{[2-Chloro-3-(trifluoromethyl)phenyl]carbonyl}-4-methyl-1-pyrimidin-2-yl-4,5,6,7-tetrahydro-1H-[1,2,3]triazolo[4,5-c]pyridine] | 0.0398 | 0.0207 |
| COc1ccnc(-n2nnc3c2CCN(C(=O)c2cccc(C(F)(F)F)c2Cl)C3)c1 [Example 136, (2-Chloro-3-(trifluoromethyl)phenyl)(1-(4-methoxypyridin-2-yl)-6,7-dihydro-1H-[1,2,3]triazolo[4,5-c]pyridin-5(4H)-yl)methanone] | 0.0158 | 0.0093 |
| CC1Cc2c(nnn2-c2ncc(F)cn2)CN1C(=O)c1ccc(F)c(Cl)c1Cl (stereo not drawn) [Example 213, 5-[(2,3-Dichloro-4-fluorophenyl)carbonyl]-1-(5-fluoropyrimidin-2-yl)-6-methyl-4,5,6,7-tetrahydro-1H-[1,2,3]triazolo[4,5-c]pyridine] | 0.0251 | 0.0133 |
| Cc1nc(-n2nnc3c2CCN(C(=O)c2cccc(C(F)(F)F)c2Cl)C3C)ncc1F (stereo not drawn) [Example 230, (2-chloro-3-(trifluoromethyl)phenyl)(1-(5-fluoro-4-methylpyrimidin-2-yl)-4-methyl-6,7-dihydro-1H-[1,2,3]triazolo[4,5-c]pyridin-5(4H)-yl)methanone] | 0.0589 | 0.0139 |
| CC1CN(C(=O)c2cccc(C(F)(F)F)c2Cl)C(C)c2nnn(-c3ccccc3)c21 (stereo not drawn) [Example 241, (2-Chloro-3-(trifluoromethyl)phenyl)(4,7-dimethyl-1-phenyl-6,7-dihydro-1H-[1,2,3]triazolo[4,5-c]pyridin-5(4H)-yl)methanone] | 2 | 2.58 |
